Test results: PubChem BioAssay (NCATS)
The list shows a part of the results, in another mix than the full data. Records with an inconclusive call do not appear. Calls of active or inactive are those of the source. The call rests on the fitted dose curve; in most records, active means well fitted curve in the direction sought with a large enough effect; inconclusive means small, poorly fitted or top-dose-only effect, or another doubt; inactive means no such curve, though single readings can be large; an effect the other way counts as inactive or inconclusive.

Key:
[1] = qHTS of pediatric cancer cell lines to identify multiple opportunities for drug repurposing: Primary screen for control Hh wild type fibroblast cells (AID 1347106); settings: Hh wild-type fibroblast viability, CellTiter-Glo luminescence, 48 h; at 46 µM (top of the series);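 further: on the % scale 0 is the no-effect control and ±100 the full control effect; a drop in luminescence marks cytotoxicity and a rise apparent proliferation; nearly all actives have a fitted effect of over 55% in size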
Method in brief: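 Cells (500-1,000/well) in growth media were settled 5 h at 37 degrees C, then given compounds for 48 h. Viability was read as CellTiter-Glo luminescence. Primary runs used MIPE at 11 points (0.78 nM-46 µM) and NPC at 8 points (0.59 nM-46 µM); follow-ups used 11 points.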

[2] = qHTS of pediatric cancer cell lines to identify multiple opportunities for drug repurposing: Primary screen for Rh30 cells (AID 1347107); settings: Rh30 rhabdomyosarcoma viability, CellTiter-Glo luminescence, 48 h; at 46 µM (top of the series); further: on the % scale 0 is the no-effect control and ±100 the full control effect; nearly all actives have a fitted effect of over 75% in size
Method in brief: (§1)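 Cells (500-1,000/well) rested 5 h, then received compounds for 48 h; metabolically active cells were measured by CellTiter-Glo luminescence. Final concentrations spanned up to 46 µM (MIPE, 11-point) or 0.59 nM-46 µM (NPC, 8-point) in primary screens, 11-point in follow-ups.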

[3] = qHTS of pediatric cancer cell lines to identify multiple opportunities for drug repurposing: Primary screen for Rh41 cells (AID 1347108); settings: Rh41 rhabdomyosarcoma viability, CellTiter-Glo luminescence, 48 h; at 46 µM (top of the series);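 further: luminescence drop marks cytotoxic hits; nearly all actives have a fitted effect of over 70% in size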
Method in brief: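 Cells seeded at 500-1,000 cells/well in growth media, rested 5 hours at 37 degrees C, 5% CO2, then dosed; MIPE compounds at 11-point (from 0.78 nM) and NPC at 8-point (from 0.59 nM) final concentrations. Viability by CellTiter-Glo luminescence after 48 hours.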

[4] = qHTS of pediatric cancer cell lines to identify multiple opportunities for drug repurposing: Confirmatory screen for NB1643 cells (AID 1347109); settings: NB1643 neuroblastoma cell viability; at 45.9 µM (top of the series);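 further: plate controls were DMSO for no effect and bortezomib for full effect; nearly all actives have a fitted effect of over 45% in size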
Method in brief: as §1

[5] = qHTS of pediatric cancer cell lines to identify multiple opportunities for drug repurposing: Confirmatory screen for A673 cells (AID 1347110); settings: A673 Ewing sarcoma cell viability; at 45.9 µM (top of the series);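 further: cells exposed to compound for 48 h before the viability read; plate controls were DMSO neutral control for no effect and bortezomib positive control for full effect; nearly all actives have a fitted effect of over 65% in size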
Method in brief: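 Concentration-response curves came straight from titrations: 11 points (0.78 nM to 46 µM) for MIPE and several concentrations (0.59 nM to 46 µM) for NPC in primary, 11 points in follow-up. Readout: ATP luminescence at 48 h.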

[6] = qHTS of pediatric cancer cell lines to identify multiple opportunities for drug repurposing: Confirmatory screen for SK-N-MC cells (AID 1347111); settings: SK-N-MC cell viability; at 45.9 µM (top of the series);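 further: cells exposed to compound for 48 h before the readout; plate controls were DMSO for no effect and bortezomib for full effect; nearly all actives have a fitted effect of over 70% in size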
Method in brief: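 Seed 500-1,000 cells/well; rest 5 h at 37 degrees C. Pin-transfer compounds, 11-point titration. Incubate 48 h. Add CellTiter-Glo, 15 min RT, read luminescence.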

[7] = qHTS of pediatric cancer cell lines to identify multiple opportunities for drug repurposing: Confirmatory screen for BT-12 cells (AID 1347112); settings: BT-12 rhabdoid tumor cells, viability; at 45.9 µM (top of the series); further: on the % scale 0 is the no-effect control and ±100 the full control effect; nearly all actives have a fitted effect of over 55% in size
Method in brief: as §1

[8] = qHTS of pediatric cancer cell lines to identify multiple opportunities for drug repurposing: Confirmatory screen for LAN-5 cells (AID 1347113); settings: LAN-5 neuroblastoma cell viability; at 45.9 µM (top of the series); further: on the % scale 0 is the no-effect control and ±100 the full control effect; nearly all actives have a fitted effect of over 65% in size
Method in brief: as §1

[9] = qHTS of pediatric cancer cell lines to identify multiple opportunities for drug repurposing: Confirmatory screen for DAOY cells (AID 1347114); settings: DAOY medulloblastoma cells viability, cytotoxicity qHTS; at 45.9 µM (top of the series); further: on the % scale 0 is the no-effect control and ±100 the full control effect; nearly all actives have a fitted effect of over 65% in size
Method in brief: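 Viability measured as metabolically active cells via CellTiter-Glo luminescence following 48 hours of compound exposure, 11-point dilutions in confirmatory testing. 500-1,000 cells/well plated 5 hours before dosing; controls were DMSO and 2.3 µM bortezomib.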

[10] = qHTS of pediatric cancer cell lines to identify multiple opportunities for drug repurposing: Confirmatory screen for NB-EBc1 cells (AID 1347115); settings: NB-EBc1 neuroblastoma cells, viability (cytotoxicity); at 45.9 µM (top of the series);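 further: cells exposed to compound for 48 h before the viability read; on the % scale 0 is the no-effect control and ±100 the full control effect; nearly all actives have a fitted effect of over 45% in size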
Method in brief: as §1

[11] = qHTS of pediatric cancer cell lines to identify multiple opportunities for drug repurposing: Confirmatory screen for BT-37 cells (AID 1347117); settings: BT-37 pediatric cancer cells, viability; at 45.9 µM (top of the series);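 further: plate controls were DMSO for no effect and bortezomib for full effect; nearly all actives have a fitted effect of over 55% in size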
Method in brief: as §1

[12] = qHTS of pediatric cancer cell lines to identify multiple opportunities for drug repurposing: Confirmatory screen for TC32 cells (AID 1347118); settings: TC32 Ewing sarcoma cells viability qHTS; at 45.9 µM (top of the series);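 further: cells exposed to compound for 48 h before the read; on the % scale 0 is the no-effect control and ±100 the full control effect; nearly all actives have a fitted effect of over 65% in size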
Method in brief: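 Luminescent CellTiter-Glo read-out of metabolically active TC32 cells after 48 h compound exposure. Primary: MIPE 11-point, 0.78 nM–46 µM; NPC 8-point, 0.59 nM–46 µM. Confirmatory: 11-point dilutions.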

[13] = qHTS of pediatric cancer cell lines to identify multiple opportunities for drug repurposing: Confirmatory screen for MG 63 (6-TG R) cells (AID 1347119); settings: MG-63 (6-TG resistant) osteosarcoma viability; at 45.9 µM (top of the series);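 further: plate controls were DMSO neutral control for no effect and bortezomib for full effect; nearly all actives have a fitted effect of over 55% in size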
Method in brief: as §1

[14] = qHTS of pediatric cancer cell lines to identify multiple opportunities for drug repurposing: Confirmatory screen for control Hh wild type fibroblast cells (AID 1347121); settings: viability qHTS; at 45.9 µM (top of the series);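 further: plate controls were DMSO for no effect and bortezomib for full effect; nearly all actives have a fitted effect of over 70% in size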
Method in brief: as §1

[15] = qHTS of pediatric cancer cell lines to identify multiple opportunities for drug repurposing: Confirmatory screen for U-2 OS cells (AID 1347122); settings: U-2 OS osteosarcoma cell viability; at 45.9 µM (top of the series)
Method in brief: as §1

[16] = qHTS of pediatric cancer cell lines to identify multiple opportunities for drug repurposing: Confirmatory screen for Rh41 cells (AID 1347123); settings: Rh41 rhabdomyosarcoma cells, viability/cytotoxicity qHTS; at 45.9 µM (top of the series);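 further: plate controls were DMSO for no effect and bortezomib for full effect; nearly all actives have a fitted effect of over 60% in size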
Method in brief: as §1

[17] = qHTS of pediatric cancer cell lines to identify multiple opportunities for drug repurposing: Confirmatory screen for RD cells (AID 1347124); settings: RD rhabdomyosarcoma cell viability; at 45.9 µM (top of the series)
Method in brief: as §1

[18] = qHTS of pediatric cancer cell lines to identify multiple opportunities for drug repurposing: Confirmatory screen for Rh18 cells (AID 1347125); settings: Rh18 rhabdomyosarcoma cells, viability; at 45.9 µM (top of the series)
Method in brief: as §1

[19] = qHTS of pediatric cancer cell lines to identify multiple opportunities for drug repurposing: Confirmatory screen for Rh30 cells (AID 1347126); settings: Rh30 rhabdomyosarcoma cell viability; at 45.9 µM (top of the series)
Method in brief: as §1

[20] = qHTS of pediatric cancer cell lines to identify multiple opportunities for drug repurposing: Confirmatory screen for Saos-2 cells (AID 1347127); settings: Saos-2 osteosarcoma cell viability; at 45.9 µM (top of the series);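 further: plate controls were DMSO for no effect and bortezomib for full effect; nearly all actives have a fitted effect of over 60% in size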
Method in brief: as §1

CCC(=O)N(c1ccccc1)C1CCNCC1
inactive: activity change, negative = cytotoxic [1] 4% | activity change, negative = cytotoxic [2] 2.88% | activity change, negative = cytotoxic [3] 9.01%

CCOC(=O)C(=O)CBr
inactive: activity change, negative = cytotoxic [1] 3.95% | activity change, negative = cytotoxic [2] 5.85% | activity change, negative = cytotoxic [3] 1.22%

CCOC(=O)N1CCC(=O)CC1
inactive: activity change, negative = cytotoxic [1] 9.74% | activity change, negative = cytotoxic [2] 25.4% | activity change, negative = cytotoxic [3] 32.1% | activity change, negative = cytotoxic [4] 7.59% | activity change, negative = cytotoxicity [5] 16.5% | activity change, negative = cytotoxic [6] -9.71% | activity change, negative = cytotoxic [7] -10.8% | activity change, negative = cytotoxicity [8] 12.8% | activity change, negative = cytotoxic [9] 11.6% | activity change, negative = cytotoxic [10] 3.65% | activity change, negative = cytotoxic [11] -4.45% | activity change, negative = cytotoxicity [12] 2.63% | activity change, negative = cytotoxicity [13] 5.92% | activity, negative = cytotoxic [14] 5% | activity change, negative = cytotoxicity [15] 12.7% | activity change, negative = cytotoxic [16] 29.9% | activity change, negative = cytotoxic [17] 9.13% | activity change, negative = cytotoxic [18] -13.3% | activity change, negative = cytotoxic [19] 27.1% | activity change, negative = cytotoxic [20] 20.6%
